From patent US9981906B2, “Trans-clomiphene metabolites and uses thereof” (Repros Therapeutics Inc., priority 2011, dated 2018)

Test system: cryopreserved hepatocytes from Beagle dog
Test: Metabolite profile of Androxal in cryopreserved Beagle dog hepatocytes
Type: in vitro ADME
Conditions: incubations containing 30 mM Androxal for 1 hour; LC/MS
Description: A study was conducted to determine the metabolic profile of Androxal® in cryopreserved hepatocytes from Sprague-Dawley rat, Beagle dog, cynomolgus monkey, and human. The liver is the main site of drug metabolism and the full complement of hepatic drug metabolizing enzymes (including liver enzymes of the CYP P450 family) are maintained within the intact cell. Isolated liver hepatocytes constitute a physiologically relevant experimental model for the evaluation of liver-related drug properties such as metabolism. Cyropreservation of the hepatocytes greatly enhances their availability for studies.
Primary hepatocytes isolated from several donors for each animal species and five human donors were pooled according to species and cryopreserved. The hepatocytes were thawed, subjected to Percoll density gradient centrifugation to remove debris and counted to determine yield. Viability was measured using Trypan blue exclusion. The hepatocytes were diluted with CYP assay buffer (Krebs-Hensleit Buffer) to prepare a 2× cell suspension of 2.0×10^6 viable cells/ml. […]
The incubations were terminated as follows: Metabolic positive control incubations were terminated by adding an equal volume of methanol. […] The samples were either immediately analyzed or stored in cryovials at −70°±10 C until analysis.
All samples were analyzed by reverse-phase HPLC. […]

**Q.** For `CCN(CC)CCOc1ccc(C(c2ccc(O)c(O)c2)C(Cl)c2ccccc2)cc1` (stereo not shown) [C26H30NO3Cl], which “relative amount, Beagle dog” value is on record?
**A.** The value was 117.3.
